Earlier results as cited in publication PMC1769465, “Toxicity Assays in Nanodrops Combining Bioassay and Morphometric Endpoints” (PLoS ONE, 2007).

Tested on: HeLa cells
Details: read-out: LC50; HeLa cells engineered with the same constructs; cited from earlier work

Sodium arsenate
CC50: 5 µM
